Consider two compounds from PubChem BioAssay AID588453 (National Center for Advancing Translational Sciences (NCATS), 2011).

Protein sequences, listed by entry. Tags and fused reporters are not part of them.
UniProt O89049, whole entry, looked up: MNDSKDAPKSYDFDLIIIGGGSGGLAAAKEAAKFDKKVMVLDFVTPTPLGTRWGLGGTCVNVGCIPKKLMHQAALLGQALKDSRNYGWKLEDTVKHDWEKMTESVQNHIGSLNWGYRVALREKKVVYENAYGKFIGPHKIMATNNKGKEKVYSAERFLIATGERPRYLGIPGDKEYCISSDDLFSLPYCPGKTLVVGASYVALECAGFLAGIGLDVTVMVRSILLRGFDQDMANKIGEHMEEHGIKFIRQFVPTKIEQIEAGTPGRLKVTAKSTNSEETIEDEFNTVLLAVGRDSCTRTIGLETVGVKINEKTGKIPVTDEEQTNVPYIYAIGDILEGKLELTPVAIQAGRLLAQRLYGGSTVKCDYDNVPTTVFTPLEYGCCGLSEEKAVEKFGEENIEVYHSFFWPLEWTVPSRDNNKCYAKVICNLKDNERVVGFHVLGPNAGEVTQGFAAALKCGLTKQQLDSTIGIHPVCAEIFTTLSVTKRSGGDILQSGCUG

This is a selection; strong and weak results do not stand in their true shares. Records with an inconclusive call do not appear. The source made the active and inactive calls. Calls come from the whole dose curve; as a rule, active = well fitted inhibition curve with a large enough effect; inconclusive = small, poorly fitted or top-dose-only effect; inactive = no such curve, though single readings can be large or run the other way.
Potency is the fitted concentration of half-maximal effect.

This assay deals with Thioredoxin reductase 1, cytoplasmic (Rattus norvegicus) (UniProt O89049). The assay is described as follows: qHTS Assay for Inhibitors of Mammalian Selenoprotein Thioredoxin Reductase 1 (TrxR1): qHTS. Note: nearly all actives have a fitted effect of over 65% in size. As to conditions: recombinant rTrxR1, NADPH fluorescence consumption, selenite substrate. From the text: The selenoprotein thioredoxin reductase (TrxR; EC 1.8.1.9) is a FAD containing homodimeric pyridine nucleotide-disulfide oxidoreductase with many cellular roles. Together with NADPH and its prime substrate thioredoxin (Trx), the enzyme forms the core of the Trx system. The mammalian Trx system exerts a wide spectrum of functions including redox regulation, antioxidant defense, regulation of transcription factors as well as support of cell growth and replication. Many of these functions involve the reduction of Trx, which may subsequently reduce a number of different substrates including ribonucleotide reductase, peroxiredoxins or NFkB. […]
This BioAssay is a validation of an NADPH fluorescence-based, dual-purpose qHTS rTrxR1 assay designed to find potential inhibitors and substrates of rTrxR1. […]
Assay protocol: 2 uL of reagents (buffer in column 4 as negative control and 90 nM rTrxR1 in columns 1-3 and 5-48) were dispensed into Greiner black solid-bottom 1,536-well assay plates, followed by 1 uL of NADPH (400 uM final concentration) to each well. […] The plate was immediately transferred to a ViewLux high-throughput CCD imager (PerkinElmer), wherein kinetic measurements of NADPH fluorescence (Ex 340 nm, Em 450 nm) were acquired (8 minute kinetic read, see Table 1). […]
In general terms: In qHTS, concentration-response curves come from the screen itself.
For `CC[n+]1c(/C=C/N(C)c2ccccc2)oc2ccc(Cl)cc21`, the Potency is active: 70.8 µM.

For the compound `CC1(C)N([O-])c2cc([N+](=O)[O-])ccc2[N+]1=O`, the Potency is active: 39.8 µM.
